Source: patent publication EP4831177A1, “CYCLO-HISPRO DERIVATIVE AND USE THEREOF FOR PREVENTING, AMELIORATING OR TREATING FIBROSIS” (dated 2026)

How the values were obtained:
[1] = test system: AML12 cells; experiment: TGF-β-induced fibronectin protein expression in AML12 cells (Western blot); conditions: for reduction of expression of fibronectin increased by TGF-β: comparison CHP vs NOV-JD-1, 10 µM (same concentration) (Example 3, FIG. 4)
Method: AML12 cells (ATCC CRL-2254), which are a mouse liver cell line, were cultured in DMEM/F12 medium (Thermo) containing 10% FBS, 1% antibiotics, and ITS (Insulin/Transferrin/Selenium; Thermo) and dexamethasone (Sigma) at 37°C in an incubator with 5% CO2.
(§1) AML12 cells were seeded in 6-well plates at a concentration of 2 × 10^5 cells/well. After 24 hours, the cell medium was removed, and the negative control group was treated with serum-free medium, and the fibrosis-inducing groups were treated with NOV-JD-1 synthesized in Example 1 at concentrations of 0 and 10 µM using serum-free medium containing TGF-β at a concentration of 2 ng/mL, respectively. After 16 hours, the cells were washed once with cold PBS and recovered using a scraper.
(§2) 100 uL of RIPA lysis buffer (Thermo) containing protease and phosphatase inhibitors was added to each recovered cell, and the cells were lysed by pipetting. After incubating on ice for 10 minutes, the cells were centrifuged at 15,000 rpm for 10 minutes at 4°C. The supernatants were collected, and the protein concentration was measured by the BCA quantitation method using a BCA protein quantitation kit (Intron), and the same amount of samples was separated for protein using a Bolt^TM protein gel electrophoresis system (Thermo), and transferred to a nitrocellulose membrane. The membrane was blocked with 5% skim milk for 1 hour at room temperature and then reacted with primary antibodies, fibronectin antibody (Abcam), Gapdh antibody (Cell signaling) and vinculin antibody (Cell signaling) at 4°C overnight. After washing three times for 10 minutes each with TBST, it was reacted with secondary antibodies for 1 hour at room temperature. After washing three times for 10 minutes each with TBST, the expression level was measured by reacting with ECL. The density of the bands that appeared was quantified using the ImageJ program, and the fibronectin band density value was corrected by dividing it by the band density value of the loading control group.
(§3) In the same manner as in Example 2, the anti-fibrotic effects of CHP and NOV-JD-1 synthesized in Example 1 were compared in LX2 cells and AML12 cells induced with fibrosis.

[2] = test system: CCl4-induced liver fibrosis/MASH model animals; experiment: Hydroxyproline level in liver tissue in CCl4-induced liver fibrosis/MASH model; conditions: 35 mg/kg oral; for reduction of level of hydroxyproline increased by CCl4: CHP vs NOV-JD-1 (Example 5, FIG. 8)
Method: (§4) Nine-week-old male C57BL6/J mice (Daehan Biolink) were housed in an environment of 23 ± 3°C with free access to food (Purina) and water. After acclimating to the breeding environment for 1 week and measuring their body weight, the mice were randomly distributed to have uniform average body weights and divided into three groups as shown in Table 2. To induce liver fibrosis/MASH, 0.2 mL/kg (CCl4:olive oil = 1:19) of carbon tetrachloride (CCl4) per mouse was intraperitoneally injected into the disease-induced and experimental groups on days 0, 2, 5, 7, 9, 12, 14, 16 and 19. Olive oil was injected in the same manner into the normal control group. NOV-JD-1 was orally administered daily at a concentration of 35 mg/kg. The normal control group and disease-induced group were orally administered the same amount of purified water (DW). Mice were euthanized 12 hour after the last CCl4 injection, and blood and liver tissue were collected.
(§5) In the same manner as in Example 4, the anti-fibrotic effects of CHP and NOV-JD-1 synthesized in Example 1 were compared in an animal model in which fibrosis was induced.
The level of hydroxyproline, which is used as an indicator of collagen accumulation due to fibrosis, was measured using a hydroxyproline assay kit (MAK008, Sigma).

[3] = test system: mouse primary lung fibroblasts; experiment: TGF-β-induced fibrosis protein expression in mouse primary lung fibroblasts (Western blot); conditions: for reduction of expression of fibronectin increased by TGF-β: CHP vs NOV-JD-1 at the same concentration (Example 7)
Method: as §2
Additionally, to isolate primary lung fibroblasts from mice (Daehan Biolink Co.), the mice were anesthetized with 3% isoflurane, then, laparotomy was performed, the aorta was cut, and 10 mL of PBS was injected into the right ventricle to perfuse and wash the lungs. The lungs were then taken out, washed with cold PBS, and finely ground with a scalpel. The finely ground tissues were dispersed in DMEM medium containing 10% FBS and 1% antibiotics and evenly spread in a 150 mm culture dish. The medium was changed once every two days while culturing in an incubator at 37°C and 5% CO2. On the 6th to 7th day, only the attached cells were isolated and cultured on a new culture dish.
Primary lung fibroblasts isolated from mice were seeded in 6-well plates at a density of 2 × 10^5 cells/well. After 24 hours, the medium was removed, and the negative control group was treated with serum-free medium, and the fibrosis-induced groups were treated with NOV-JD-1 at concentrations of 0 and 25 µM using serum-free medium including TGF-β at a concentration of 5 ng/mL, respectively. After 48 hours, the cells were washed once with cold PBS and recovered using a scraper.
(§6) The expression of fibrosis proteins was analyzed in the same manner as in Example 2-3.
The anti-fibrotic effects of CHP and NOV-JD-1 synthesized in Example 1 were compared in mouse primary lung fibroblasts induced to undergo fibrosis in the same manner as in Example 6.

[4] = test system: CCl4-induced liver fibrosis/MASH model animals; experiment: Gene expression in liver tissue (real-time PCR) in CCl4-induced liver fibrosis/MASH model; conditions: for reduction of expression of α-SMA gene increased by CCl4: CHP vs NOV-JD-1 (Example 5, FIG. 9); for decrease of gene expression of IL-1β increased by CCl4: CHP vs NOV-JD-1 (Example 5, FIG. 10A); for decrease of gene expression of IL-6 increased by CCl4: CHP vs NOV-JD-1 (Example 5, FIG. 10B)
Method: as §4
(§7) Liver tissues were extracted with NucleoZOL according to the manufacturer's (MACHEREY-NAGEL) total RNA isolation protocol, and 1 µg of RNA was subjected to reverse transcription polymerase chain reaction (RT-PCR) using ReverTra Ace qPCR RT Master Mix (Toyobo) to synthesize cDNA. The synthesized cDNA was analyzed by real-time PCR using primer sets of inflammatory cytokines IL-1β and IL-6 genes and fibrotic genes Collagen I, Collagen III and α-SMA and SYBR Green Realtime PCR Master mix (Toyobo). The primers in Table 2 were synthesized by request to Bioneer. Each gene expression value was corrected by dividing it by the expression value of gapdh, which is a housekeeping gene.
as §5
The expression levels of the fibrosis gene α-SMA and the inflammatory cytokines IL-1β and IL-6 genes were evaluated using the same method as in Example 4-3.

[5] = test system: CCl4-induced liver fibrosis/MASH model animals; experiment: Liver function test (blood ALT activity) in CCl4-induced liver fibrosis/MASH model; conditions: 35 mg/kg oral daily, mice (Example 4, FIG. 5)
Method: as §4
For the liver function test of mice, blood was diluted 1:19 using the dilution buffer of the ALT assay kit (K-753) from Biovision and measured according to the kit protocol.

[6] = test system: BLM-induced IPF model animals; experiment: Gene expression in lung tissue (real-time PCR) in BLM-induced IPF model; conditions: oral, 25mg/kg (Table 5), CHP vs NOV-JD-1 (Example 9)
Method: as §7
C57BL6/J mice were housed in an environment of 23 ± 3°C after introduction, with free access to food and water. After acclimating to the housekeeping environment for 1 week, 0.03 IU/50µL of bleomycin per subject was injected intratracheally using a catheter to induce IPF. The same amount of saline was injected intratracheally to the normal control group. After 1 week, the body weights were measured, and the mice were randomly distributed to have equal average body weights and divided into three groups as shown in Table 4. The normal control group and the disease-induced group were orally administered DW daily for 2 weeks starting from 1 week after bleomycin injection, and the experimental group was orally administered NOV-JD-1 at a concentration of 35 mg/kg for the same period.
The expression levels of the fibrosis genes Fibronectin, Collagen I, Collagen III, and Collagen IV in lung tissue were evaluated using the primers in Table 2 in the same manner as in Example 4-3.
In an animal model of idiopathic pulmonary fibrosis, the same method as in Example 8 was used to compare the anti-fibrosis effects of CHP and NOV-JD-1 synthesized in Example 1.
The expression levels of α-SMA and Vimentin genes, which are fibrosis genes, in lung tissue were evaluated using the primers in Table 2 in the same manner as in Example 4-3. Each gene expression value was corrected by dividing it by the expression values of β-actin and gapdh, which are housekeeping genes.

[7] = test system: LX2 cells; experiment: TGF-β-induced fibronectin protein expression in LX2 cells (Western blot); conditions: for decrease of expression of fibronectin increased by TGF-β: TGF-β 2 ng/mL, 24 hours (Example 2, FIG. 1); for reduction of expression of fibronectin increased by TGF-β: comparison CHP vs NOV-JD-1, 25 µM (same concentration) (Example 3, FIG. 3)
Method: LX2 cells (Sigma-Aldrich SCC064), which are a human liver cell line, were cultured in DMEM medium (Hyclone) containing 10% FBS (Hyclone) and 1% penicillin/streptomycin antibiotics (Thermo) at 37°C in an incubator with 5% CO2.
as §1, with “LX2 cells” for “AML12 cells”, “of 0, 1, 5” for “of 0”, “and 25” for “and 10”, “medium including” for “medium containing”, “TGF-β (R&D systems)” for “TGF-β”, “After 24” for “After 16”
as §2, §3

[8] = test system: MRC5 cells; experiment: TGF-β-induced fibronectin protein expression in MRC5 cells (Western blot); conditions: 10 µM, TGF-β 2 ng/mL, 16 hours (Example 6)
Method: as §2, with “group. […]” for “group.”
as §6

[9] = test system: CCl4-induced liver fibrosis/MASH model animals; experiment: Fibronectin protein expression in liver tissue (Western blot) in CCl4-induced liver fibrosis/MASH model; conditions: 35 mg/kg oral; for reduction of expression of fibronectin protein increased by CCl4: CHP vs NOV-JD-1 (Example 5)
Method: as §4, §5
Liver tissue was homogenized with 500 µL of RIPA buffer to which protease and phosphatase inhibitors were added, kept on ice for 15 minutes, and centrifuged at 15,000 rpm at 4°C for 10 minutes. The supernatant was collected to recover the lysate, and the subsequent Western blotting process was performed as in Example 2-3 using fibronectin and Gapdh primary antibodies.

[10] = relative to the CHP group (Example 5)
[11] = 35 mg/kg oral daily (Example 4, FIG. 6)
[12] = 35 mg/kg oral daily (Example 4, FIG. 7)

| SMILES | reduction of expression of fibronectin increased by TGF-β [1] [%] | reduction of level of hydroxyproline increased by CCl4 [2] [%] | reduction of expression of fibronectin increased by TGF-β [3] [%] | reduction of expression of α-SMA gene increased by CCl4 ([4]; 35 mg/kg oral) [%] | decrease of gene expression of IL-1β increased by CCl4 ([4]; 35 mg/kg oral) [%] | decrease of gene expression of IL-6 increased by CCl4 ([4]; 35 mg/kg oral) [%] | decrease of expression of Vimentin gene increased by BLM [6] [%] | decrease of expression of αSMA gene increased by BLM [6] [%] | reduction of expression of fibronectin increased by TGF-β [7] [%] | reduction of expression of fibronectin protein increased by CCl4 [9] [%] | other results |
| --- | --- | --- | --- | --- | --- | --- | --- | --- | --- | --- | --- |
| [2H]c1nc(C[C@@H]2NC(=O)[C@@H]3CCCN3C2=O)c[nH]1 | 70.6 | 26.2 | 53.8 | 36.9 | 46.3 | 45.0 | 50.8 | 52.5 | 69.8 | 49.6 | decrease of expression of fibronectin increased by TGF-β ([1]; 10 µM, TGF-β 2 ng/mL, 16 hours (Example 2, FIG. 2)): 48.2%; reduction of fibronectin expression by NOV-JD-1 compared with CHP ([1]; 10 µM, relative to the CHP group (Example 3)): 61.3%; reduction of hydroxyproline by NOV-JD-1 more than that by CHP [2, 10]: 17.9%; reduction of expression of Collagen I increased by TGF-β ([3]; 25 µM, TGF-β 5 ng/mL, 48 hours (Example 6)): 32%; reduction of fibronectin by NOV-JD-1 greater than that by CHP ([3]; relative to the CHP group (Example 7)): 36.7%; reduction of IL-1β gene expression increased by CCl4 [4, 11]: 46.3%; reduction of IL-6 gene expression increased by CCl4 [4, 11]: 45.0%; reduction of Collagen I gene expression increased by CCl4 [4, 12]: 26.1%; reduction of Collagen III gene expression increased by CCl4 [4, 12]: 23.6%; reduction of α-SMA gene expression increased by CCl4 [4, 12]: 40.7%; reduction of α-SMA gene expression by NOV-JD-1 compared to CHP ([4]; 35 mg/kg oral, relative to the CHP group (Example 5)): 29.4%; reduction of ALT activity increased by CCl4 [5]: 13.6%; decrease of expression of fibronectin increased by TGF-β ([7]; 1 µM): 21.6%; decrease of expression of fibronectin increased by TGF-β ([7]; 5 µM): 20.1%; decrease of expression of fibronectin increased by TGF-β ([7]; 25 µM): 37.3%; reduction of fibronectin expression by NOV-JD-1 compared with CHP ([7]; 25 µM, relative to the CHP group (Example 3)): 62.8%; reduction of expression of fibronectin increased by TGF-β [8]: 22%; decrease of fibronectin protein by NOV-JD-1 compared to CHP [9, 10]: 35.9% |
| O=C1N[C@@H](Cc2c[nH]cn2)C(=O)N2CCC[C@@H]12 | 23.9 | 10.1 | 27 | 10.7 | 13.4 | 8.6 | 25.4 | 33 | 18.9 | 21.4 | – |
